Experimental findings from ChEMBL document CHEMBL5365409, “Novel series of tunable µOR modulators with enhanced brain penetration for the treatment of opioid use disorder, pain and neuropsychiatric indications” (Bioorg Med Chem Lett, 2023) are described below.

Protein sequences, listed by entry. Tags and fused reporters are not part of them.
UniProt P35372, whole entry: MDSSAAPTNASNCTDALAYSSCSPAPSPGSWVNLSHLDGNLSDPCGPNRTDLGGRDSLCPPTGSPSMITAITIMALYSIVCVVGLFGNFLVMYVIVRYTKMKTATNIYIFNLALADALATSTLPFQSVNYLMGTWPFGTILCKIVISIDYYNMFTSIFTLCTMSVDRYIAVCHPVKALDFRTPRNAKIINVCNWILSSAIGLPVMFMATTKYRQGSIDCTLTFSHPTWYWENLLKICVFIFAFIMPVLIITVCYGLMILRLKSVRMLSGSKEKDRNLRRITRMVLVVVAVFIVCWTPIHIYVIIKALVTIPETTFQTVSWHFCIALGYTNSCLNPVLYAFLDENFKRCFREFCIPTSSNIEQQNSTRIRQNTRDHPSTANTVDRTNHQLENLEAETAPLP

For one assay, the target named is Mu-type opioid receptor (Homo sapiens, UniProt P35372). Nature of the assay: Agonist activity at human mu opioid receptor stably transfected in CHO cells assessed as maximal response by cAMP assay relative to DAMGO.
Details: not given
In kind it is functional, cell-based.
`C[C@@H](OC(=O)NC[C@@H](Cc1ccc(O)cc1)N(C)C)c1ccccc1`: the Emax came to 28%.

Consider `CN(C)[C@@H](CNC(=O)N[C@@H](c1ccccc1)C1CC1)Cc1ccc(O)cc1`, for which the Emax was 17%.

With `CN(C)[C@H](CNC(=O)N[C@@H](c1ccccc1)C1CC1)Cc1ccc(O)cc1`, the Emax is 22%.

For `C[C@@H](OC(=O)NC[C@H](Cc1ccc(O)cc1)N(C)C)c1ccccc1`, the maximal response (Emax) stood at 33%.

Staying with this assay, now noted: filed as agonist.
In the case of `CN(C)[C@H](CNC(=O)N[C@H](c1ccccc1)C1CC1)Cc1ccc(O)cc1`, the Emax came out at 47%.

With `CN(C)[C@@H](CNC(=O)N[C@H](c1ccccc1)C1CC1)Cc1ccc(O)cc1`, the Emax is 48%.

Consider `C[C@H](OC(=O)NC[C@H](Cc1ccc(O)cc1)N(C)C)c1ccccc1`, for which the Emax came out at 43%.
